Our source for the IC50 values is patent US20160083400A1, “TRICYCLIC GUANIDINE DERIVATIVE” (Sunovion Pharmaceuticals Inc., priority 2014, published 2016).

The chains behind the UniProt entries cited, without tags or fusion partners.
UniProt Q01064, whole entry: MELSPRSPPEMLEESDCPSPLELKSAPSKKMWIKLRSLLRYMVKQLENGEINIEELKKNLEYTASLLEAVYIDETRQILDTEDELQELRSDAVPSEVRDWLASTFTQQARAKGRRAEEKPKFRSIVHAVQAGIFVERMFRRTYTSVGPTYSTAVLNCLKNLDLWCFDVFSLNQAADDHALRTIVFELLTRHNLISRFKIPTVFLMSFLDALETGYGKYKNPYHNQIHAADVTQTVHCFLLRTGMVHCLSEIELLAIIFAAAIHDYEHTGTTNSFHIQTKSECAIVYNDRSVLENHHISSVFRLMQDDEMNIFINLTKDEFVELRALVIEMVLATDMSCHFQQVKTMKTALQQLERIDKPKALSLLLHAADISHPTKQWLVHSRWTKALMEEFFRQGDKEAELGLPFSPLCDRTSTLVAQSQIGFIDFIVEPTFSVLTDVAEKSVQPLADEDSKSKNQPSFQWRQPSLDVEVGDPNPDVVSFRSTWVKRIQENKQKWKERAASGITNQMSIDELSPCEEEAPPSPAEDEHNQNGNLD

The target in this assay is PDE1B (Homo sapiens, UniProt Q01064). Put plainly: In vitro HTRF PDE1 inhibition assay (PDE1B). The conditions noted are these: read-out: IC50 (μM), in vitro PDE1B HTRF Assay, 100 nM cyclic GMP, calmodulin, 45 minutes at 37° C.

Regarding `CCc1ccc(C2Cn3c(nn4c(C(C)C)ncc4c3=O)N2)nn1` (single isomer, unassigned) [205], the half-inhibitory concentration (IC50) (usually the concentration needed to halve the response being measured) was 10 to 100 µM.
`CC(C)c1ccc(C2Cn3c(nn4c(C(C)C)ncc4c3=O)N2)cn1` (single isomer, unassigned) [203]: the IC50 was under 1 µM.
The figure for `O=c1c2cnc(C3CCOCC3)n2nc2n1CC(c1ccc(Cl)cn1)N2` (stereo not drawn) is under 1 µM; for `CC(C)c1ncc2c(=O)n3c(nn12)NC(c1ccccc1)C3` (stereo not drawn) it is under 1 µM; for `CC(C)c1ncc2c(=O)n3c(nn12)N[C@H](c1ccc(C(F)(F)F)nc1)C3` it is 1 to 10 µM.
Consider `COc1ccc(C2Cn3c(nn4c(C5CCOCC5)ncc4c3=O)N2)cc1` (stereo not drawn), for which the half-inhibitory concentration (IC50) was under 1 µM.
Regarding `Cc1cncc(C2Cn3c(nn4c(C5CCCC5)ncc4c3=O)N2)c1` (single isomer, unassigned) [214], the concentration for half-maximal inhibition (IC50) lay within 1 to 10 µM.
The figure for `COCc1cc(Cl)ccc1C1Cn2c(nn3c(C4CCOCC4)ncc3c2=O)N1` (single isomer, unassigned) [210] is 10 to 100 µM; for `COc1cc(C)ccc1C1Cn2c(nn3c(C4CCOCC4)ncc3c2=O)N1` (single isomer, unassigned) [114] it is 1 to 10 µM; for `CCc1ccc([C@@H]2Cn3c(nn4c(C(C)C)ncc4c3=O)N2)cn1` it is 1 to 10 µM.
On to `O=c1c2cnc(C3CCCC3)n2nc2n1CC(c1cncc(Cl)c1)N2` (single isomer, unassigned), for which the IC50 was 1 to 10 µM.
In the case of `CC(C)c1ncc2c(=O)n3c(nn12)NC(c1ccc(F)cc1)C3` (stereo not drawn) it was under 1 µM.
Regarding `CO[C@H](C)c1ncc2c(=O)n3c(nn12)N[C@@H](c1ccc(Cl)cc1)C3`, the IC50 was under 1 µM.
Regarding `N#Cc1ccc(C2Cn3c(nn4c(C5CCOCC5)ncc4c3=O)N2)cc1` (stereo not drawn), the IC50 is under 1 µM.
On to `Cc1ccnc(C2Cn3c(nn4c(C5CCCC5)ncc4c3=O)N2)c1` (single isomer, unassigned) [217], for which the IC50 was 1 to 10 µM.
With `CC(C)c1ncc2c(=O)n3c(nn12)NC(c1ccc(Cl)cc1)C3` (stereo not drawn), the concentration for half-maximal inhibition (IC50) was under 1 µM.
As for `COc1ccc([C@H]2Cn3c(nn4c(C(C)C)ncc4c3=O)N2)cn1`, the concentration for half-maximal inhibition (IC50) was under 1 µM.
Consider `O=c1c2cnn(C3CCCC3)c2nc2n1CCC(c1ccccc1)N2` (stereo not drawn), for which the half-inhibitory concentration (IC50) was under 1 µM.
The figure for `COCc1cc(Cl)ccc1C1Cn2c(nn3c(C4CCOCC4)ncc3c2=O)N1` (single isomer, unassigned) [211] is 1 to 10 µM; for `CC(C)c1ccc(C2Cn3c(nn4c(C(C)C)ncc4c3=O)N2)nc1` (single isomer, unassigned) [201] it is 1 to 10 µM.
As to `CC(C)Cc1ncc2c(=O)n3c(nn12)NC(c1ccc(Cl)cc1)C3` (stereo not drawn), the half-inhibitory concentration (IC50) was under 1 µM.
As to `COc1ccc(C2Cn3c(nc4c(cnn4C4CCOCC4)c3=O)N2)cc1` (single isomer, unassigned) [24], the half-inhibitory concentration (IC50) was under 1 µM.
The figure for `CO[C@@H](C)c1ncc2c(=O)n3c(nn12)NC(c1ccc(C(C)C)cn1)C3` (single isomer, unassigned) [223] is 10 to 100 µM; for `O=c1c2cnc(C3CCOCC3)n2nc2n1CC1(CCCc3ccccc31)N2` (stereo not drawn) it is 1 to 10 µM; for `O=c1c2cnc(C3CCOCC3)n2nc2n1CC1(CCc3ccccc31)N2` (stereo not drawn) it is 1 to 10 µM.
On to `CCc1ccc(C2Cn3c(nn4c(C5CCOCC5)ncc4c3=O)N2)cc1` (single isomer, unassigned), for which the IC50 was under 1 µM.
The figure for `CCc1cnc(C2Cn3c(nn4c(C(C)C)ncc4c3=O)N2)cn1` (single isomer, unassigned) is 10 to 100 µM; for `COc1ccc([C@@H]2Cn3c(nn4c(C(C)C)ncc4c3=O)N2)cn1` it is under 1 µM.
Regarding `O=c1c2cnc(C3CCOCC3)n2nc2n1CC(c1ccc(F)cc1)N2` (stereo not drawn), the IC50 is under 1 µM.
For the molecule `O=c1c2cnc(C3CCOCC3)n2nc2n1CC(c1ccc(Cl)cc1)N2` (stereo not drawn), the IC50 is under 1 µM.
In the case of `COc1ccc([C@H]2Cn3c(nn4c(C(C)C)ncc4c3=O)N2)nc1` it was under 1 µM; in that of `COc1ccc(C2Cn3c(nn4c(C(C)C)ncc4c3=O)N2)cc1` (stereo not drawn), under 1 µM; in that of `CC1(c2ncc3c(=O)n4c(nn23)N[C@@H](c2ccc(Cl)cc2)C4)CCCC1`, under 1 µM.
The figure for `O=c1c2cnc(CC3CC3)n2nc2n1C[C@H](c1ccc(Cl)cc1)N2` is under 1 µM; for `CCc1ccc([C@@H]2Cn3c(nn4c(C(C)C)ncc4c3=O)N2)nc1` it is 1 to 10 µM.
In the case of `O=c1c2cnc(C3(C(F)(F)F)CC3)n2nc2n1C[C@H](c1ccc(Cl)cc1)N2` it was under 1 µM; in that of `Cc1ccnc(C2Cn3c(nn4c(C5CCCC5)ncc4c3=O)N2)c1` (single isomer, unassigned) [216], under 1 µM.
Take `COc1cncc(C2Cn3c(nn4c(C5CCCC5)ncc4c3=O)N2)c1` (single isomer, unassigned) [219]: the half-inhibitory concentration (IC50) lay in the range of 1 to 10 µM.
In the case of `CC(C)c1ncc2c(=O)n3c(nn12)NCC3` it was under 1 µM; in that of `COc1cc(C)ccc1C1Cn2c(nn3c(C4CCOCC4)ncc3c2=O)N1` (single isomer, unassigned) [115], under 1 µM; in that of `COc1ccc(CC2CCn3c(nc4c(cnn4C4CCCC4)c3=O)N2)cc1` (stereo not drawn), under 1 µM.
The figure for `Cc1cncc(C2Cn3c(nn4c(C5CCCC5)ncc4c3=O)N2)c1` (single isomer, unassigned) [215] is under 1 µM.
In the case of `CC(C)c1ccc(C2Cn3c(nn4c(C(C)C)ncc4c3=O)N2)cn1` (single isomer, unassigned) [204] it was 1 to 10 µM; in that of `Cc1ccc(C2Cn3c(nn4c(C(C)C)ncc4c3=O)N2)nc1` (single isomer, unassigned) [209], 10 to 100 µM; in that of `Cc1cccc(C2Cn3c(nn4c(C5CCOCC5)ncc4c3=O)N2)c1` (single isomer, unassigned) [116], 1 to 10 µM.
In the case of `O=c1c2cnc(C3CCOCC3)n2nc2n1CC(c1ccc(Cl)cc1C(F)(F)F)N2` (single isomer, unassigned), the IC50 fell in the range of 10 to 100 µM.
With `O=c1c2cnc(C3CCOCC3)n2nc2n1CC(c1ccc(C(F)(F)F)cc1)N2` (single isomer, unassigned), the IC50 was under 1 µM.
As for `CC(C)n1ncc2c(=O)n3c(nc21)NC(c1ccc(F)cc1)C3` (stereo not drawn), the IC50 is under 1 µM.
In the case of `Cc1ccc(C2Cn3c(nn4c(C(C)C)ncc4c3=O)N2)nc1` (single isomer, unassigned) [208] it was under 1 µM; in that of `COCc1ncc2c(=O)n3c(nn12)N[C@@H](c1ccc(Cl)cc1)C3`, under 1 µM; in that of `CCc1ccc([C@H]2Cn3c(nn4c(C(C)C)ncc4c3=O)N2)cn1`, under 1 µM.
Take `CC(C)(C)c1ccc(C2Cn3c(nn4c(C5CCOCC5)ncc4c3=O)N2)cc1` (single isomer, unassigned): the 50% inhibitory concentration (IC50) was under 1 µM.
The figure for `O=c1c2cnc(C3CCOCC3)n2nc2n1CC(c1cccc(Cl)c1)N2` (single isomer, unassigned) is under 1 µM; for `CC(C)c1ncc2c(=O)n3c(nn12)N[C@H](c1ccc(C(C)(C)C)nc1)C3` it is 1 to 10 µM; for `CO[C@@H](C)c1ncc2c(=O)n3c(nn12)N[C@@H](c1ccc(Cl)cc1)C3` it is under 1 µM.
In the case of `CC(C)n1ncc2c(=O)n3c(nc21)NC(c1cccc(Cl)c1)C3` (stereo not drawn) it was under 1 µM; in that of `CCCc1ncc2c(=O)n3c(nn12)NC(c1ccc(Cl)cc1)C3` (stereo not drawn), under 1 µM.
In the case of `CC[C@@H](C)c1ncc2c(=O)n3c(nn12)N[C@@H](c1ccc(Cl)cc1)C3` (single isomer, unassigned) it was under 1 µM; in that of `O=c1c2cnn(C3CCCC3)c2nc2n1CCC(Cc1ccc(Cl)cc1)N2` (stereo not drawn), under 1 µM; in that of `CO[C@H](C)c1ncc2c(=O)n3c(nn12)NC(c1ccc(C(C)C)cn1)C3` (single isomer, unassigned) [220], under 1 µM.
Turning to `CO[C@@H](C)c1ncc2c(=O)n3c(nn12)NC(c1ccc(C(C)C)cn1)C3` (single isomer, unassigned) [221], the half-maximal inhibitory concentration (IC50) was under 1 µM.
The figure for `COc1cccc(C2Cn3c(nn4c(C5CCOCC5)ncc4c3=O)N2)c1` (single isomer, unassigned) [113] is 1 to 10 µM.
For `O=c1c2ccnc(C3CCOCC3)c2nc2n1C(c1ccc(Cl)cc1)CCN2` (stereo not drawn), the IC50 is under 1 µM.
In the case of `CC(C)c1ncc2c(=O)n3c(nn12)N[C@@H](c1ccc(C(F)(F)F)nc1)C3` it was under 1 µM.
As to `COc1cncc(C2Cn3c(nn4c(C5CCCC5)ncc4c3=O)N2)c1` (single isomer, unassigned) [218], the IC50 was under 1 µM.
In the case of `CC(C)c1ncc2c(=O)n3c(nn12)NC(c1cccc(Cl)c1)C3` (stereo not drawn), the IC50 was under 1 µM.
Regarding `CC[C@H](C)c1ncc2c(=O)n3c(nn12)N[C@@H](c1ccc(Cl)cc1)C3`, the concentration for half-maximal inhibition (IC50) is under 1 µM.
In the case of `CCc1ccc(C2Cn3c(nn4c(C(C)C)ncc4c3=O)N2)nn1` (single isomer, unassigned) [206], the 50% inhibitory concentration (IC50) is under 1 µM.
In the case of `COc1ccc([C@@H]2Cn3c(nn4c(C(C)C)ncc4c3=O)N2)nc1` it was 10 to 100 µM; in that of `CC(C)c1ncc2c(=O)n3c(nn12)NC(c1ccc(C#N)cc1)C3` (stereo not drawn), under 1 µM.
For the molecule `COc1cccc(C2Cn3c(nn4c(C5CCOCC5)ncc4c3=O)N2)c1` (single isomer, unassigned) [112], the half-inhibitory concentration (IC50) was under 1 µM.
For the molecule `CC(C)c1ccc(C2Cn3c(nn4c(C5CCOCC5)ncc4c3=O)N2)cc1` (single isomer, unassigned), the concentration for half-maximal inhibition (IC50) was under 1 µM.
In the case of `Cc1cccc(C2Cn3c(nn4c(C5CCOCC5)ncc4c3=O)N2)c1` (single isomer, unassigned) [117] it was under 1 µM; in that of `CO[C@H](C)c1ncc2c(=O)n3c(nn12)NC(c1ccc(C(C)C)cn1)C3` (single isomer, unassigned) [222], 10 to 100 µM.
In the case of `CCc1ccc(C2Cn3c(nn4c(C(C)C)ncc4c3=O)N2)nc1` (single isomer, unassigned), the half-inhibitory concentration (IC50) is under 1 µM.
